{
  "sequences": {"note": "Sequences of proteins named here, by UniProt entry; tags and fusion partners are left off.", "UniProt P08172, whole entry": "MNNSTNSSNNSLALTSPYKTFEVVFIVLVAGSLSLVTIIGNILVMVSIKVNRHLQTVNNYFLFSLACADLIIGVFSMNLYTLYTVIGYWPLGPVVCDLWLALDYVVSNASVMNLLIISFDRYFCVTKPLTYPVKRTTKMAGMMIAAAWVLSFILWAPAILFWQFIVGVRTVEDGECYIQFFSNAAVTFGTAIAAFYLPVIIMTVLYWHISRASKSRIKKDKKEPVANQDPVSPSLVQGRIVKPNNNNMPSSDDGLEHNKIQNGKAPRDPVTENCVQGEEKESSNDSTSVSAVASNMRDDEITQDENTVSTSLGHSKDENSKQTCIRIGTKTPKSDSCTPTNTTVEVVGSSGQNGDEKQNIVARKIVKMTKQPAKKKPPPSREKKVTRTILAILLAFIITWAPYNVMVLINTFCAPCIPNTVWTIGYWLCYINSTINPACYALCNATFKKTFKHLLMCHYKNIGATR"},
  "source": "ChEMBL document CHEMBL1240489",
  "about": "“Discovery of N-{1-[3-(3-oxo-2,3-dihydrobenzo[1,4]oxazin-4-yl)propyl]piperidin-4-yl}-2-phenylacetamide (Lu AE51090): an allosteric muscarinic M1 receptor agonist with unprecedented selectivity and procognitive potential” (J Med Chem, 2010)",
  "target": "Muscarinic acetylcholine receptor M2 (Homo sapiens, UniProt P08172)",
  "test": "Displacement of [3H]-AFDX-384 from human muscarinic M2 receptor expressed in CHO-K1 cells",
  "assay_type": "cell-based",
  "data": [
    {"smiles": "CCCCCCOc1nsnc1C1=CCCN(C)C1", "note": "[XANOMELINE]", "values": [
      {"measurement": "Ki", "value": 120, "unit": "nM"}
    ]}
  ]
}
